# Assay results reported in ChEMBL document CHEMBL5244265 (Bioorg Med Chem, 2020).
# Experiments:
# Neutrophil elastase [1] = target: T1, Neutrophil elastase (Homo sapiens, UniProt P08246); test: Inhibition of elastase in human neutrophil using MeOSuc-AAPV-AMC as substrate by fluorescence based analysis; assay type: cell-based
# T1 sequence (P08246 whole entry): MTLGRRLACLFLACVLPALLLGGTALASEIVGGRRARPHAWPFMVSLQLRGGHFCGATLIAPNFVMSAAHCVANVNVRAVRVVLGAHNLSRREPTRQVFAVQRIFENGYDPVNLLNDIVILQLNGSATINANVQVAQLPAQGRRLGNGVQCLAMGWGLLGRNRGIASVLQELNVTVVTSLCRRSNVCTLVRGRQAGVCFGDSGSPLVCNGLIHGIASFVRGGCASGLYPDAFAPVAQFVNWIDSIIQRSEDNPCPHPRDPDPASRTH
# In short: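 Fluorogenic assay with HNE (MeOSucAAPV-AMC substrate) or human KLK7 ([…] substrate). Test compounds ran as a 10-dose, 3-fold dilution series from 1 μM in duplicate, with controls tested in the same run. Activity was taken from the initial linear slope of the fluorescence increase over time. Results are mean of n = 2, expressed relative to 0.5% DMSO vehicle.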
# Neutrophil elastase [2] = target: T1, Neutrophil elastase; test: Inhibition of elastase in human neutrophil using N-(OMe-succinyl)-Ala-Ala-Pro-Val-p-nitroanilide as substrate preincubated with enzyme for 15 mins followed by substrate addition and measured every 30s for 30 mins by absorbance based analysis
# In short: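 HNE stock at 100 μg/mL and substrate stock at 2 mM, both in 0.1 M Tris–0.5 M NaCl pH 7.5. Compound or DMSO was preincubated with enzyme in the same buffer for 15 min at room temperature, then substrate was added. A405 was read every 30 s for 30 min. Activity was taken from the initial slope as a percentage of the uninhibited reaction.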
smiles,measurement,setting,value
CC(C)(C)C(=O)Oc1ccc(S(=O)(=O)Nc2ccccc2C(=O)NCC(=O)O)cc1,IC50,Neutrophil elastase [1],3.5 nM
same,IC50,Neutrophil elastase [2],128 nM
